Source: US20160256560A1, “Environmentally Sensitive Compositions” (priority 2010, published 2016)

Experiments:
[1] = pH 8
[2] = pH 5.5

| Substance | Log P [1] | Log P (octanol-water partition coefficient) [2] |
| --- | --- | --- |
| biotin-dPeg3-maleimide [biotin-Peg] | -1.39 | – |
| Phallacidin-(CH2)n—SH, n=6 [phallC6SH] | – | −0.09 |
